Target: human BACE1 (Homo sapiens, UniProt P56817)
Test: Fluorescent kinetic assay: Evaluation of BACE-1 Binding Affinity of Test Compounds
Settings: read-out: BACE-1 IC50 μM; 10 nM enzyme, 25 μM substrate WABC-6, 50 mM Na-Acetate pH 4.5, room temperature

Chains of the proteins cited; added tags and fusions are not shown. Residues count along the entry.
UniProt P56817, 46-501 limits assumed: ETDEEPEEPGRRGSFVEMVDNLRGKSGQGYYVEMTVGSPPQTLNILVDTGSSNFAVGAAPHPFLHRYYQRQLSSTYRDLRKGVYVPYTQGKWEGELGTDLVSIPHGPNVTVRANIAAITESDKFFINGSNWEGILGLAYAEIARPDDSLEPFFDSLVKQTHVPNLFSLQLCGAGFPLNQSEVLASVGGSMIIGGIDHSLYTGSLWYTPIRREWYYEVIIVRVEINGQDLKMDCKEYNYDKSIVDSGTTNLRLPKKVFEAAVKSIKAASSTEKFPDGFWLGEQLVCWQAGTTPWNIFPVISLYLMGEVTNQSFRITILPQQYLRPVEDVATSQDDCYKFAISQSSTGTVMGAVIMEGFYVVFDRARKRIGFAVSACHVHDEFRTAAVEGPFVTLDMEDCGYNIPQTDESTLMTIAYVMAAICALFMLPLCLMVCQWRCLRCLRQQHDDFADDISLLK

IC50 [µM]	SMILES
0.11 to 1	Cc1ccc(C2(c3cccc(-c4cccnc4)c3)N=C(N)N(C)C2=O)s1 (stereo not shown)
0.11 to 1	CN1C(=O)C(c2ccsc2)(c2cccc(-c3cccc(F)c3F)c2)N=C1N (stereo not shown)
0.11 to 1	CN1C(=O)C(c2ccsc2)(c2cccc(-c3cccc(F)c3)c2)N=C1N (stereo not shown)
0.01 to 0.1	CN1C(=O)C(c2cccc(-c3cccnc3)c2)(c2cccs2)N=C1N (stereo not shown)
> 1	CCC(=O)c1[nH]ccc1C1(c2ccc(OC(F)F)cc2)N=C(N)N(C)C1=O (stereo not shown)
0.01 to 0.1	CCCC(=O)c1cc(C2(c3cccc(-c4cccnc4F)c3)N=C(N)N(C)C2=O)cn1CC (stereo not shown)
0.11 to 1	CCCOc1cccc(C2(c3ccsc3)N=C(N)N(C)C2=O)c1 (stereo not shown)
0.01 to 0.1	COc1ccc(OC)c(-c2cccc(C3(c4ccsc4)N=C(N)N(C)C3=O)c2)c1 (stereo not shown)
0.01 to 0.1	CN1C(=O)C(c2ccsc2)(c2cccc(-c3cccnc3)c2)N=C1N (stereo not shown)
0.01 to 0.1	CCn1cc(C2(c3cccc(-c4cccnc4F)c3)N=C(N)N(C)C2=O)cc1C(C)=O (stereo not shown)
0.11 to 1	CN1C(=O)C(c2cccc(-c3cccnc3F)c2)(c2ccn(CC(F)(F)F)c2)N=C1N (stereo not shown)
0.11 to 1	CN1C(=O)C(c2ccsc2)(c2cccc(-c3cc(F)cc(F)c3)c2)N=C1N (stereo not shown)
0.01 to 0.1	CN1C(=O)C(c2ccsc2)(c2cccc(-c3cncnc3)c2)N=C1N (stereo not shown)
0.11 to 1	CN1C(=O)C(c2cccc(-c3cc(F)ccc3F)c2)(c2cccs2)N=C1N (stereo not shown)
0.01 to 0.1	CN1C(=O)C(c2ccsc2)(c2cccc(-c3cccc(C#N)c3)c2)N=C1N (stereo not shown)
0.11 to 1	CCn1ccc(C2(c3cccc(-c4cccnc4F)c3)N=C(N)N(C)C2=O)c1 (stereo not shown)
0.11 to 1	CN1C(=O)C(c2ccsc2)(c2cccc(-c3cc(F)ccc3F)c2)N=C1N (stereo not shown)
0.11 to 1	Cc1ccc(C2(c3cccc(-c4cncnc4)c3)N=C(N)N(C)C2=O)s1 (stereo not shown)

SMILES	IC50 [µM]
CN1C(=O)C(c2ccsc2)(c2cccc(-c3ccc(F)nc3)c2)N=C1N (stereo not shown)	0.11 to 1
